Test results: patent US6410541B2, “Compounds useful for inhibition of farnesyl protein transferase” (Schering Corporation, priority 1997, dated 2002)

By UniProt entry, the sequences of proteins in these tests, tags left out.
UniProt Q02293, whole entry: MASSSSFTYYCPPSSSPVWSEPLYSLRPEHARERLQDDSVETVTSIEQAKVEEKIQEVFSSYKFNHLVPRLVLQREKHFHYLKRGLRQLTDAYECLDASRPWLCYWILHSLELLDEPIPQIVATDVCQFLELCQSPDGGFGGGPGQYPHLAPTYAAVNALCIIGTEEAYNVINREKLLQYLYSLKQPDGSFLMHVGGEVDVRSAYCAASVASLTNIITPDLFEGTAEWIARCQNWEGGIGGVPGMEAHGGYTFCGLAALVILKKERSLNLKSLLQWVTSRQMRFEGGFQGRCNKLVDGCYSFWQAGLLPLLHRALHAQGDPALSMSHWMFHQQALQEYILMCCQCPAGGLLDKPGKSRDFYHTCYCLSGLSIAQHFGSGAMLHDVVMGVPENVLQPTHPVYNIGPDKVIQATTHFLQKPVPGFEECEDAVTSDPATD

Target: farnesyl protein transferase (UniProt Q02293+Q04631)
Assay: FPT IC50 (inhibition of farnesyl protein transferase, in vitro enzyme assay)
Type: biochemical
Details: read-out: FPT IC50; in vitro enzyme assay per WO 95/10516
Procedure: FPT IC50 (inhibition of farnesyl protein transferase, in vitro enzyme assay) and COS Cell IC50 (Cell-Based Assay) were determined following the assay procedures described in WO 95/10516, published Apr. 20. 1995. GGFT IC50 (inhibition of geranylgeranyl protein transferase, in vitro enzyme assay), Cell Mat Assay, and anti-tumor activity (in vivo anti-tumor studies) could be determined by the assay procedures described in WO 95/10516. The disclosure of WO 95/10516 is incorporated herein by reference thereto.
In Table 10, “nM” represents nanomolar.

COc1ccc2c(c1)CC(CC(=O)N1CCC([C@H]3c4ncc(Br)cc4CCc4cc(Cl)cc(Br)c43)CC1)C2=O (single isomer, unassigned)
IC50: 170 nM
